Results as given in ChEMBL document CHEMBL4831512 (J Med Chem, 2021).

The chains behind the UniProt entries cited, without tags or fusion partners.
UniProt P42336, whole entry: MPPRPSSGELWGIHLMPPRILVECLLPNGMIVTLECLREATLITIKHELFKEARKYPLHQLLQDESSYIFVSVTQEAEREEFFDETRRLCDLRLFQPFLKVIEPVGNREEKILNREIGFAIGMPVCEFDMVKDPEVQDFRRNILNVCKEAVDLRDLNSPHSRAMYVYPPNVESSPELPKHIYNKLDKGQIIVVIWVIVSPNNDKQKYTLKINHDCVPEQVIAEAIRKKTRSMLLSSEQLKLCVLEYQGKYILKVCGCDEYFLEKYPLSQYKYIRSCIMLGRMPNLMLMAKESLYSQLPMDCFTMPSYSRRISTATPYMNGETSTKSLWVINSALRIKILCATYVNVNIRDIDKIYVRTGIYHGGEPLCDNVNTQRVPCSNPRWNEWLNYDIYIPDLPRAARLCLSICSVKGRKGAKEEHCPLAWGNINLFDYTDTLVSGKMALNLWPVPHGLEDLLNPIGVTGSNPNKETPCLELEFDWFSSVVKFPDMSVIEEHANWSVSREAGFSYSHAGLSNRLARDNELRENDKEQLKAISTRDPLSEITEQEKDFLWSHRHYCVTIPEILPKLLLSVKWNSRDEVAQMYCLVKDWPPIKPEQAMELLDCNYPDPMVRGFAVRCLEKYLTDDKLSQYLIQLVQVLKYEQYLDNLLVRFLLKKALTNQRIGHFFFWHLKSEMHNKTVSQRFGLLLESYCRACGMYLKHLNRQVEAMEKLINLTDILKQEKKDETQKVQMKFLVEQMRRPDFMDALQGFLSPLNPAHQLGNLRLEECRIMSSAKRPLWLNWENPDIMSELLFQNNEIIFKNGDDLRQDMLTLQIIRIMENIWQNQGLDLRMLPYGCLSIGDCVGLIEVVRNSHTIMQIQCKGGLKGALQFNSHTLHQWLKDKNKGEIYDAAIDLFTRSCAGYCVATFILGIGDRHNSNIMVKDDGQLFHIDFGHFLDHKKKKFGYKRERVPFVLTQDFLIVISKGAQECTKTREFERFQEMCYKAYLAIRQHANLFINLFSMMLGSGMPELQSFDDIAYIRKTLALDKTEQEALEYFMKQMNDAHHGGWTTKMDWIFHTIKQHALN

Target: Phosphatidylinositol 4,5-bisphosphate 3-kinase catalytic subunit alpha isoform (Homo sapiens, UniProt P42336)

Question: How did the IC50 turn out when `Cc1ccc(S(=O)(=O)NCC(C)(C)O)cc1-c1cnc(N)c(-c2cnn(C)n2)c1` was run?
Answer: The IC50 was 570 nM.
